Data reported in US9694016B2 (Novartis AG, priority 2013, dated 2017).

Protein sequences, listed by entry. Tags and fused reporters are not part of them.
UniProt P04049, whole entry Y340E/Y341E: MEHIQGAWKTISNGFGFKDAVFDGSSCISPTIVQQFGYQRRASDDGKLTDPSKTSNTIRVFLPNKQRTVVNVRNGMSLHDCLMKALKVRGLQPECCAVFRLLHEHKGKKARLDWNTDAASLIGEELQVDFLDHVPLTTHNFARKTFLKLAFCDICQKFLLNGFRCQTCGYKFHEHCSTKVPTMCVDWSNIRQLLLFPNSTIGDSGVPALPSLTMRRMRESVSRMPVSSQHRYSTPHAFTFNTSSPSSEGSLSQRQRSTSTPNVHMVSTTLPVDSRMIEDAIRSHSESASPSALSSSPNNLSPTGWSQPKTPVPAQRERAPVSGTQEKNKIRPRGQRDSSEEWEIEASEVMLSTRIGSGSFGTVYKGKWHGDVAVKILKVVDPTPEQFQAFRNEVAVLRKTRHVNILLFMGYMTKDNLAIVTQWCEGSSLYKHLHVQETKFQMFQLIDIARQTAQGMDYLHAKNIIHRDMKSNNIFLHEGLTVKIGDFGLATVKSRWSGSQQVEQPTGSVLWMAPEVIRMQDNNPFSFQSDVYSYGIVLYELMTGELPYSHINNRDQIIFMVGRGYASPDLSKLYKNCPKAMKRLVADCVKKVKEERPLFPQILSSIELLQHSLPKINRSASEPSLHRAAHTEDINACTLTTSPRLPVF

molecular target: C-Raf FL (full-length C-Raf protein, Y340E and Y341E activating mutations) (Homo sapiens (Human), UniProt P04049, Y340E/Y341E); type: biochemical; settings: AlphaScreen, 60 min pre-incubation, 1 hour reaction; read-out: c-Raf FL IC-50

| IC50 | SMILES |
| --- | --- |
| 0.5 nM | Cc1ccc(NC(=O)c2ccnc(C(C)(C)C)c2)cc1-c1cc(N2CCOCC2)n(C)c(=O)c1 [Example 472, 2-(tert-butyl)-N-(4-methyl-3-(1-methyl-6-morpholino-2-oxo-1,2-dihydropyridin-4-yl)phenyl)isonicotinamide] |
| 3.7 nM | Cc1ccc(NC(=O)c2ccccc2)cc1-c1cc(N2CCOCC2)n(C)c(=O)c1 [Example 473, N-(4-methyl-3-(1-methyl-6-morpholino-2-oxo-1,2-dihydropyridin-4-yl)phenyl)benzamide] |
| 0.6 nM | Cc1ccc(NC(=O)c2ccnc(S(C)(=O)=O)c2)cc1-c1cc(N2CCOCC2)n(C)c(=O)c1 [Example 474, N-(4-methyl-3-(1-methyl-6-morpholino-2-oxo-1,2-dihydropyridin-4-yl)phenyl)-2-(methylsulfonyl)isonicotinamide] |
| 0.1 nM | CCC(F)(F)c1cc(C(=O)Nc2ccc(C)c(-c3cc(N4CCOCC4)n(C)c(=O)c3)c2)ccn1 [Example 475, 2-(1,1-difluoropropyl)-N-(4-methyl-3-(1-methyl-6-morpholino-2-oxo-1,2-dihydropyridin-4-yl)phenyl)isonicotinamide] |
| 0.1 nM | CCc1cc(C(=O)Nc2ccc(C)c(-c3cc(N4CCOCC4)n(C)c(=O)c3)c2)ccn1 [Example 476, 2-ethyl-N-(4-methyl-3-(1-methyl-6-morpholino-2-oxo-1,2-dihydropyridin-4-yl)phenyl)isonicotinamide] |
| 0.2 nM | Cc1ccc(NC(=O)c2ccnc(C3CC3)c2)cc1-c1cc(N2CCOCC2)n(C)c(=O)c1 [Example 477, 2-cyclopropyl-N-(4-methyl-3-(1-methyl-6-morpholino-2-oxo-1,2-dihydropyridin-4-yl)phenyl)isonicotinamide] |
| 0.3 nM | Cc1ccc(NC(=O)c2ccnc(C(C)(C)F)c2)cc1-c1cc(N2CCOCC2)n(C)c(=O)c1 [Example 479, 2-(2-fluoropropan-2-yl)-N-(4-methyl-3-(1-methyl-6-morpholino-2-oxo-1,2-dihydropyridin-4-yl)phenyl)isonicotinamide] |
| 0.1 nM | Cc1ccc(NC(=O)c2ccnc(C3(C#N)CC3)c2)cc1-c1cc(N2CCOCC2)n(C)c(=O)c1 [Example 480, 2-(1-cyanocyclopropyl)-N-(4-methyl-3-(1-methyl-6-morpholino-2-oxo-1,2-dihydropyridin-4-yl)phenyl)isonicotinamide] |
| 0.3 nM | CCn1cc(C(=O)Nc2ccc(C)c(-c3cc(N4CCOCC4)n(C)c(=O)c3)c2)cc(C(F)(F)F)c1=O [Example 481, 1-ethyl-N-(4-methyl-3-(1-methyl-6-morpholino-2-oxo-1,2-dihydropyridin-4-yl)phenyl)-6-oxo-5-(trifluoromethyl)-1,6-dihydropyridine-3-carboxamide] |
| 0.2 nM | Cc1ccc(NC(=O)c2ccnc(C(C)C)c2)cc1-c1cc(N2CCOCC2)n(C)c(=O)c1 [Example 482, 2-isopropyl-N-(4-methyl-3-(1-methyl-6-morpholino-2-oxo-1,2-dihydropyridin-4-yl)phenyl)isonicotinamide] |
| 0.9 nM | Cc1ccc(NC(=O)c2ccnc(C(C)(C)O)c2)cc1-c1cc(N2CCOCC2)n(C)c(=O)c1 [Example 483, 2-(2-hydroxypropan-2-yl)-N-(4-methyl-3-(1-methyl-6-morpholino-2-oxo-1,2-dihydropyridin-4-yl)phenyl)isonicotinamide] |

The next lines start with the compound.

| SMILES | IC50 |
| --- | --- |
| Cc1ccc(NC(=O)c2ccnc(N3CCC3)c2)cc1-c1cc(N2CCOCC2)c(=O)n(C)c1 [Example 454, 2-(azetidin-1-yl)-N-(4-methyl-3-(1-methyl-5-morpholino-6-oxo-1,6-dihydropyridin-3-yl)phenyl)isonicotinamide] | 0.5 nM |
| COCCN(C)c1cc(C(=O)Nc2ccc(C)c(-c3cc(N4CCOCC4)c(=O)n(C)c3)c2)ccn1 [Example 455, 2-((2-methoxyethyl)(methyl)amino)-N-(4-methyl-3-(1-methyl-5-morpholino-6-oxo-1,6-dihydropyridin-3-yl)phenyl)isonicotinamide] | 0.7 nM |
| Cc1ccc(NC(=O)c2ccnc(N(C)CCO)c2)cc1-c1cc(N2CCOCC2)c(=O)n(C)c1 [Example 456] | 0.8 nM |
| CNCCN(C)c1cc(C(=O)Nc2ccc(C)c(-c3cc(N4CCOCC4)c(=O)n(C)c3)c2)ccn1 [Example 457, 2-(methyl(2-(methylamino)ethyl)amino)-N-(4-methyl-3-(1-methyl-5-morpholino-6-oxo-1,6-dihydropyridin-3-yl)phenyl)isonicotinamide] | 6.3 nM |
| Cc1ccc(NC(=O)c2ccc(C(O)CO)c(C(F)(F)F)c2)cc1-c1cc(N2CCOCC2)c(=O)n(C)c1 (stereo not drawn) [Example 460, 4-(1,2-dihydroxyethyl)-N-(4-methyl-3-(1-methyl-5-morpholino-6-oxo-1,6-dihydropyridin-3-yl)phenyl)-3-(trifluoromethyl)benzamide] | 3.1 nM |
| Cc1ccc(NC(=O)c2ccc(CN)c(C(F)(F)F)c2)cc1-c1cc(N2CCOCC2)c(=O)n(C)c1 [Example 461, 4-(aminomethyl)-N-(4-methyl-3-(1-methyl-5-morpholino-6-oxo-1,6-dihydropyridin-3-yl)phenyl)-3-(trifluoromethyl)benzamide] | 2.1 nM |
| Cc1ccc(NC(=O)c2ccc(CO)c(C(F)(F)F)c2)cc1-c1cc(N2CCOCC2)c(=O)n(C)c1 [Example 462, 4-(hydroxymethyl)-N-(4-methyl-3-(1-methyl-5-morpholino-6-oxo-1,6-dihydropyridin-3-yl)phenyl)-3-(trifluoromethyl)benzamide] | 0.7 nM |
| Cc1ccc(NC(=O)c2ccnc(C(C)(C)C#N)c2)cc1-c1cc(N2CC3CC(C2)O3)c(=O)n(C)c1 [Example 465, N-(3-(5-(6-oxa-3-azabicyclo[3.1.1]heptan-3-yl)-1-methyl-6-oxo-1,6-dihydropyridin-3-yl)-4-methylphenyl)-2-(2-cyanopropan-2-yl)isonicotinamide] | 15 nM |
| Cc1ccc(C(=O)Nc2ccc(CN)c(C(F)(F)F)c2)cc1-c1cc(N2CCOCC2)c(=O)n(C)c1 [Example 467, N-(4-(aminomethyl)-3-(trifluoromethyl)phenyl)-4-methyl-3-(1-methyl-5-morpholino-6-oxo-1,6-dihydropyridin-3-yl)benzamide] | 2.4 nM |
| Cc1ccc(NC(=O)c2cc(CO)cc(C(F)(F)F)c2)cc1-c1cc(N2CCOCC2)c(=O)n(C)c1 [Example 469, 3-(hydroxymethyl)-N-(4-methyl-3-(1-methyl-5-morpholino-6-oxo-1,6-dihydropyridin-3-yl)phenyl)-5-(trifluoromethyl)benzamide] | 0.6 nM |
| Cc1ccc(NC(=O)c2cc(CN)cc(C(F)(F)F)c2)cc1-c1cc(N2CCOCC2)c(=O)n(C)c1 [Example 470, 3-(aminomethyl)-N-(4-methyl-3-(1-methyl-5-morpholino-6-oxo-1,6-dihydropyridin-3-yl)phenyl)-5-(trifluoromethyl)benzamide] | 1 nM |
| Cc1ccc(NC(=O)c2ccnc(C(C)(F)F)c2)cc1-c1cc(N2CCOCC2)n(C)c(=O)c1 [Example 471, 2-(1,1-difluoroethyl)-N-(4-methyl-3-(1-methyl-6-morpholino-2-oxo-1,2-dihydropyridin-4-yl)phenyl)isonicotinamide] | 0.2 nM |

same assay, conditions: read-out: c-Raf FL IC-50

| SMILES | IC50 |
| --- | --- |
| Cc1ccc(NC(=O)c2cccc(C(F)(F)F)c2)cc1-c1cc(N2CC3CC(C2)O3)c(=O)n(C)c1 [Example 464, N-(3-(5-(6-oxa-3-azabicyclo[3.1.1]heptan-3-yl)-1-methyl-6-oxo-1,6-dihydropyridin-3-yl)-4-methylphenyl)-3-(trifluoromethyl)benzamide] | 2.1 nM |
